Values quoted from earlier work, collected in paper PMC12193579, “Pro-Apoptotic Activity of 1-(4,5,6,7-Tetrabromo-1H-benzimidazol-1-yl)propan-2-one, an Intracellular Inhibitor of PIM-1 Kinase in Acute Lymphoblastic Leukemia and Breast Cancer Cells” (International Journal of Molecular Sciences, 2025).

Target: CK2
Design: method as in PMID 15358133
Details: cited from earlier work

Q: Which Ki does the source give for `CN(C)c1nc2c(Br)c(Br)c(Br)c(Br)c2[nH]1` [DMAT, 2-Dimethylamino-4,5,6,7-tetrabromo-1H-benzimidazole] here?
A: 40 nM
